Results on 2 substances are retold here after patent US6753150B2, “Method for determining whether a compound is capable of inhibiting the interaction of a peptide with rage” (The Trustees of Columbia University in the City of New York, priority 1998, dated 2004).

Protein sequences, listed by entry. Tags and fused reporters are not part of them. Residues count along the entry.
UniProt Q15109, 23-342 limits assumed: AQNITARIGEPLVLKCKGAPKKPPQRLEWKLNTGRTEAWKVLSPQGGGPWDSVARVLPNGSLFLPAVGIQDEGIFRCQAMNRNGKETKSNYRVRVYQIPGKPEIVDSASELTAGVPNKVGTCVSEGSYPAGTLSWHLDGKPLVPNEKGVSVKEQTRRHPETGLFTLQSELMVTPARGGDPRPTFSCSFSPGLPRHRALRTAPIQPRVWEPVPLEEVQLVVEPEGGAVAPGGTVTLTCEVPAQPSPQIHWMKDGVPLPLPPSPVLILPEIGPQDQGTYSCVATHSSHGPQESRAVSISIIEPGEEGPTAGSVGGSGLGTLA
UniProt Q15109, 23-404: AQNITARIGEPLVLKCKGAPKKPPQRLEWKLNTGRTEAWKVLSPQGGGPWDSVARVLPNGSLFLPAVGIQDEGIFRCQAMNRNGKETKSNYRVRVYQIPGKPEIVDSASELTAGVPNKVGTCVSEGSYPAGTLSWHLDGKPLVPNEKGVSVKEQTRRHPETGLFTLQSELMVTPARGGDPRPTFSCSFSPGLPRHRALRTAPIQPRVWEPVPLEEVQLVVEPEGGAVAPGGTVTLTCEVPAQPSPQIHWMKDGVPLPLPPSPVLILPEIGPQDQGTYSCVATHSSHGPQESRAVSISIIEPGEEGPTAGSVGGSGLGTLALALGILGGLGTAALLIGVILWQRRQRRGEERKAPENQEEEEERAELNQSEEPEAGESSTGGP

Assay [1] addresses T1, sRAGE (Homo sapiens, UniProt Q15109).
T1 construct: full length soluble RAGE (100 nM; specific activity 7,000-8,000 cpm/ng)
In words: Radioligand binding of 125I-sRAGE to immobilized AGE-modified proteins (dose response). The settings on record: immobilized AGE-protein. As for the experimental part: FIG. 1. Radioligand binding studies: dose response experiments. CML- or pentosidine BSA (5 μg) was immobilized to plastic wells and radioligand binding assays performed with increasing concentrations of purified ^125-I sRAGE +/− excess unlabelled sRAGE (50-fold molar excess). Bound tracer was eluted with buffer containing NP40 (1%) and NaCl (0.15M) and the data subjected to analysis as described in the Experimental Details section.
Radioligand binding assays. CML (free), CML-modifications of proteins, pentosidine (free), pentosidine modifications of proteins, methylglyoxal modifications of proteins were prepared according to previously published methods (24-30). All materials were devoid of endotoxin using the Detoxi-gel system (PIERCE®) and tested for negativity in the limulus amebocyte assay (SIGMA®). Gas chromatography-mass spectroscopy and HPLC analyses were performed and verified the identity of the prepared AGES. Specific AGE or control protein (5 μg) was loaded onto the wells of a NUNC MAXISORP® dish in sodium bicarbonate/sodium carbonate buffer (pH 9.8) overnight at 4° C. […] The material retrieved was then counted in a gamma counter (LKB). […]
(§1) Radioligand binding studies. […] Radioligand binding assays were performed as described and equilibrium binding data was analyzed according to the equation of Klotz and Hunston. […]

Assay [2] deals with human peripheral blood-derived mononuclear phagocytes. Kind of assay: Monocyte chemotaxis assay in modified chemotaxis chambers. Type of assay: cell-based. As for the experimental part: FIG. 5. Cellular activation studies: mononuclear phagocytes. Human monocytes (5×10^4) were placed in the upper wells of modified chemotaxis chambers with the indicated mediators in the lower wells for three hrs. Membranes were then stained with Giemsa and cells that migrated through the membrane toward the chemotactic stimulus counted per hpf.
Chenotaxis assays. Chemotaxis assays, performed in 48-well microchemotaxis chambers (Neuro-Probe) containing polycarbonate membranes were performed as previously described (15). In these studies, human peripheral blood-derived mononuclear phagocytes, which bear cell surface RAGE, were employed.
Mononuclear phagocytes. To determine if CML-ovalbumin mediated increased human peripheral blood-derived monocyte chemotaxis, experiments were performed in modified chemotaxis chambers as described above.

The test system of assay [3] is Human umbilical vein endothelial cells (HUVEC). Kind of assay: Molt-4 binding assay on stimulated endothelial cells (cell surface VCAM-1 functional activity). It is filed as cell-based. The settings on record: preincubation or co-incubation with CML-ovalbumin. As for the experimental part:
FIG. 4. Cellular activation studies: endothelial cells. HUVEC were incubated in the presence of the indicated mediators for 6 hrs. Where indicated, certain cells were preincubated with anti-RAGE/preimmune IgG for one hour. Cells were washed and incubated with ^51Cr-Molt-4 cells (bear VLA-4) for 1 hr. Bound radioactivity was eluted in the presence of SDS (1%) and counted in a gamma counter. Results are reported compared with Molt-4 cell binding to cells exposed to native ovalbumin (defined as “1”).
Molt-4 binding assays. Molt-4 binding assays were performed according to the general method of Marui et al (32). Human umbilical vein endothelial cells were stimulated with the indicated compound in the presence or absence of competitors for 6 hrs at 37° C. Molt-4 cells, which express VLA-4, ligand for VCAM-1, (ATCC) were grown in RPMI 1640 containing fetal bovine serum (10%). […] Before the binding assay, unincorporated radioactivity was removed by washing cells with Hank's balanced salt solution, and then resuspending them in RPMI containing fetal bovine serum (10%) at 4×10^6 cells/ml. Molt-4 cells were incubated with endothelial cells for one hr at 37° C., and nonadherent cells were removed by washing twice with Medium 199 containing fetal bovine serum (1%); adherent cells were solubilized in SDS (1%), and radioactivity counted in a gamma counter. […]

For assay [4], the target named is T1, sRAGE. Kind of assay: Radioligand competition: 125I-sRAGE (100 nM) binding to immobilized CML-BSA with competitors. The settings on record: competitor in excess. As for the experimental part:
FIG. 2. Radioligand binding studies: competition experiments. CML-BSA was immobilized to wells; binding was performed with ^125-I sRAGE (100 nM) with the indicated competitors. […] Percent maximal binding is reported compared to binding to immobilized CML-BSA without competitor (100%).
FIG. 3. Radioligand binding studies: CML-adducts interact with the V-type Ig domain of RAGE. CML-BSA was immobilized to wells; binding was performed with ^125-I sRAGE (100 nM) in the presence or absence of excess unlabelled (100-fold) V-type Ig domain, C1 Ig domain or C2 Ig domain. Percent maximal binding is reported compared to binding to immobilized CML-BSA without competitor (100%).
Radioligand binding assays. CML (free), CML-modifications of proteins, pentosidine (free), pentosidine modifications of proteins, methylglyoxal modifications of proteins were prepared according to previously published methods (24-30). All materials were devoid of endotoxin using the Detoxi-gel system (PIERCE®) and tested for negativity in the limulus amebocyte assay (SIGMA®). Gas chromatography-mass spectroscopy and HPLC analyses were performed and verified the identity of the prepared AGES. […] The material retrieved was then counted in a gamma counter (LKB). […]
as §1

The next assay deals with RAGE (Homo sapiens, UniProt Q15109). In words: Binding of CML-modified proteins to immobilized RAGE (Example 2). An excerpt:
Advanced glycation endproducts (AGEs) are heterogeneous compounds that form in hyperglycemia, highly-oxidized environments and renal failure. AGEs accumulate in the plasma and tissues of patients with diabetes; their presence has been linked to the development of medical complications. Interaction of AGEs with Receptor for AGE ([…]) activates cells such as endothelial cells (Ecs) and monocytes (Mps) in a manner favoring the development of vascular/inflammatory cell complications. AGEs consist of structures such as carboxymethyl-lysine and pentosidine (both free and protein-bound forms). To begin to delineate which AGE forms interact with RAGE, we prepared free CML and pentosidine, as well as CML- and pentosidine bovine serum albumin (BSA) and ovalbumin (OVA). CML-BSA and CML-OVA bound immobilized RAGE in a dose-dependent and saturable manner, with Kd=60 nM, a process inhibited in the presence of anti-RAGE IgG and soluble RAGE (sRAGE), but not by nonimmune IgG, BSA, OVA, free CML or free pentosidine.

A further assay has as its system NF-κB. In words: Electrophoretic mobility shift assay for NF-κB in endothelial cells. It is filed as cell-based, human. The settings on record: anti-RAGE IgG 70 μg/ml (high) and 7 μg/ml (low). As for the experimental part:
FIG. 6. Electrophoretic mobility shift assay. Human umbilical vein endothelial cells (HUVEC) were incubated with mediators for 6 hrs; nuclear extracts were prepared and electrophoretic mobility shift assays performed with ^32P-labelled probe for NF-κB. Lanes contain mediators as above (all AGEs were added at 50 μg/ml). Lanes contain: lane 1, CML-ovalbumin; lane 2, native ovalbumin; lane 3, pentosidine ovalbumin; lane 4, nonimmune IgG and CML ovalbumin; lane 5, anti-RAGE IgG: 7 μg/ml; lane 6; anti-RAGE IgG: 70 μg/ml; lane 7: CML-ovalbumin/100-fold excess unlabelled NF-κB. Supershift assays (lane 8: anti-p50 IgG; lane 9:anti-p65 IgG; lane 10:both anti-p50 IgG and anti-p65 IgG; lane 11: preimmune IgG), all + CML-ovalbumin. Lane 12:CML-ovalbumin: vector alone/13:tail-deleted RAGE.
Electrophoretic mobility shift assays (EMSA). Nuclear extracts were prepared from HUVECs by the method of Schreiber (33). Protein concentration was determined using the Bradford reagent (BIO-RAD®). Double-stranded oligonucleotides representing a portion of the human VCAM-1 promoter containing an NF-κB site were synthesized (Life Technologies). Oligonucleotides were used as probe as follows: NF-κB: 5′[…]3′ (SEQ ID No. 1). Probes were 5′-end labelled with g-[^32P] ATP and polynucleotide kinase. Each reaction contained 10 fmol of probe and 2-5 microliter (1.5 μg) of nuclear extract. […]

On to “methylglyoxal-HSA: methylglyoxal-modified human serum albumin”, for which the “specific binding to sRAGE/RAGE” value in the assay with sRAGE [1] is “did not bind specifically”.
Consider “sRAGE: soluble receptor for advanced glycation endproduct(s)”, for which the “effect on CML ovalbumin-mediated monocyte chemotaxis” value in assay [2] was “completely inhibited”. Further, in assay [3], the “effect on CML-ovalbumin-induced Molt-4 binding to HUVEC” value is on record as “diminished binding”. Moreover, the “effect on binding of 125I-sRAGE to immobilized CML-BSA” value in the assay with sRAGE [4] is “inhibited binding”. Besides, the “effect on binding of CML-BSA and CML-OVA to immobilized RAGE” value with RAGE is “inhibited”. Also, the “effect on CML-ovalbumin-induced activation of NF-κB in HUVEC” value in the assay on NF-κB was “inhibited activation”; with NF-κB (listed as soluble RAGE), “inhibited”.
